AlphaSeq binding of Ab-14 light chain variants to a spike HR2 peptide

The measurements come from Engelhart et al. 2022 (doi:10.1038/s41597-022-01779-4) through the FLAb antibody collection.

All variants were tested on one target, the spike HR2 peptide PDVDLGDISGINAS (SARS-CoV-2).

Parent scFv Ab-14: VH joined to VL by a 15-residue (Gly4Ser)3 linker. Changes lie in the light chain CDRs alone.
VH: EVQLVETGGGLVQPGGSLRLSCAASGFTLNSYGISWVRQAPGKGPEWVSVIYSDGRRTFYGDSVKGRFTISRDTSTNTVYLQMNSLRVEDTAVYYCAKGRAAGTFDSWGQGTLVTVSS
VL: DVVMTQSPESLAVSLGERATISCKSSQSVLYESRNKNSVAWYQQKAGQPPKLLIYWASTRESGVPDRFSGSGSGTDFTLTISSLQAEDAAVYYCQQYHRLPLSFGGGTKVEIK

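In library AAYL50, one, two or three CDR residues were substituted; doubles and triples were drawn at random. The assay is AlphaSeq: two haploid yeast populations carry antibody and antigen on their surface. After mating in shaken culture at 30 °C for 16 h, diploids were selected and their barcode pairs sequenced. The ratio of observed to expected reads was calibrated, replicate by replicate, on BCL2-family standards whose Kd was known from biolayer interferometry. There are three technical replicates.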

Each variant is given by its three light chain CDRs, as the data file delimits them; those of the parent are KSSQSVLYESRNKNSVA, WASTRES, QQYHRLPLS.
Values are log10 of the apparent Kd in nM; lower means stronger binding.
An entry "n.d." has no value in the source: the pair was not observed among the diploids in that replicate. This suggests poor binding but is not conclusive.
For reference, the parent read 0.65 as the reference entry and 1.68 as a member of this library.
Nonspecific signal, from three strains lacking the peptide, appeared in 18% of pairings of library AAYL50, centred on 4.19 (5% of these signals below 2.99); values are not corrected for it. Also given: how often the same scFv was detected with the empty control strains, with their mean in brackets.

CDR-L1,CDR-L2,CDR-L3,"log10 Kd, replicates",empty controls
KSSQSVLYESRNKNSVA,WASTREY,MQYHRLELS,n.d. 3.34 n.d.,1 of 9 (2.20)
KSSQSVLYESRNKNSVA,WASTRES,QQYHQLPLS,0.71 0.80 0.92,1 of 9 (3.47)
KSSQSVLYESRNKNSVA,WASTRTG,QQYHQLPLS,1.84 1.54 1.61,1 of 9 (5.55)
KSAQSVLYESRNKNVVA,WASTRES,QQYHRLPPS,n.d. n.d. n.d.,0 of 9
KSSQSVLYESRIKNSVA,WASTLEV,QQYHRLPLS,2.70 3.13 3.04,0 of 9
RSSQSVLYESRNKNSVA,WASTRES,QQCVRLPLS,n.d. n.d. 4.60,2 of 9 (5.23)
KSSQSNLYESRNKNSVA,WASTAES,QQYSRLPLS,4.06 3.33 3.86,9 of 9 (5.16)
KSDQSVLYRSRNKNSVA,WASTRES,QQYHRLPLR,n.d. n.d. 3.09,1 of 9 (4.00)
ASSQSVLYESDNQNSVA,WASTRES,QQYHRLPLS,1.60 1.71 1.81,6 of 9 (3.91)
KSSQSVLYEERNKNSVA,WCSTREM,QQYHRLPLS,3.71 n.d. n.d.,4 of 9 (4.24)
KSSQHVLTESRNKNSVA,WASTREA,QQYHRLPLS,0.53 0.78 0.22,0 of 9
KSSQSVVYESRNKNSVW,WCSTRES,QQYHRLPLS,4.15 n.d. n.d.,2 of 9 (3.08)
KCSQSVLYESKNKNSVA,WASTRES,QQYHGLPLS,1.51 1.55 1.72,2 of 9 (3.68)
KSSQSVLYESRNKNSVA,VASTRES,QQFHRVPLS,n.d. 5.36 n.d.,4 of 9 (4.61)
KSSQSSLYQSANKNSVA,WASTRES,QQYHRLPLS,0.80 1.06 1.04,0 of 9
KSSQSVQYESRNKNSVA,WAMTRES,QQYHILPLS,2.77 2.83 2.94,4 of 9 (4.58)
KSSQSVLYESRNKNSVA,WASTNES,QQYCRLPLS,4.29 n.d. 3.29,0 of 9
ISCQSVLYESRNKNSVA,WASLRES,QQYHRLPLS,n.d. 3.38 n.d.,3 of 9 (3.83)
KSSQSVLYESFNKNSVD,WASTRES,QQYHRLPLV,n.d. n.d. n.d.,1 of 9 (4.71)
KSSQVVLYESRNKESVA,WASTRES,SQYHRLPLS,5.48 3.35 3.98,2 of 9 (4.72)
KSSQSVLYESRNKNSDA,WASTRES,QQYHPLPLS,n.d. n.d. n.d.,0 of 9
KSSQSVLYESRNKNSVA,WACIRES,QQLHRLPLS,4.26 3.62 4.43,2 of 9 (4.72)
KSSQSVLYESRNKNSVA,WAYTRWS,QLYHRLPLS,n.d. n.d. n.d.,1 of 9 (4.32)
KMSQSVWYESRNKNSVA,WASTRES,QQYHRLPLF,0.30 0.55 0.41,1 of 9 (5.71)
KSSQHVLYESRNKNSQA,WASTRVS,QQYHRLPLS,n.d. n.d. n.d.,0 of 9
LSSRSVLYESRNKNSVA,WASTREY,QQYHRLPLS,2.31 1.76 2.51,0 of 9
KSSQSVLYESRNKNSLA,WASTREI,QQYHILPLS,4.32 2.77 2.85,3 of 9 (4.55)
KFSQSVLYESRNKNSVA,WASTMES,QQYHLLPLS,1.88 1.81 1.77,0 of 9
KSSNSVLYESRNENSVA,WWSTRES,QQYHRLPLS,n.d. n.d. n.d.,1 of 9 (3.05)
KSSQSVWMESRNKNSVA,WASGRES,QQYHRLPLS,1.97 1.86 1.87,4 of 9 (4.46)
KSSQSVLYESRNKNMVD,WASTRES,QQTHRLPLS,5.01 4.61 5.72,7 of 9 (5.31)

Extract of 2 entries:

| CDR-L1 | CDR-L2 | CDR-L3 | log10 Kd, replicates | empty controls |
|---|---|---|---|---|
| KSSQSVLYESRNKNSVA | WASTREY | MQYHRLELS | n.d. 3.34 n.d. | 1 of 9 (2.20) |
| KSSQSVLYESRNKNSVA | WAYTRWS | QLYHRLPLS | n.d. n.d. n.d. | 1 of 9 (4.32) |